Experimental data taken from patent US9662305B2 (REVIVE THERAPEUTICS INC., priority 2012, dated 2017).

Tested on: ABCG2
Conditions: 100 mg/kg/day for 7 days; data not shown

CC(C)(S)C(=O)N[C@@H](CS)C(=O)O [bucillamine, N-(2-mercapto-2-methylpropionyl)-L-cysteine] was tested, and the “ABCG2 protein in the mouse kidney (Western blot)” value was “unregulated”.
